For 38 compounds, EC50 results are on record in patent publication US8779129B2, “Triazinedione derivatives as GABAB receptor modulators” (Addex Pharma S.A., priority 2006, dated 2014).

Chains of the proteins cited; added tags and fusions are not shown. Residues count along the entry.
UniProt O88871, 41-940 limits assumed: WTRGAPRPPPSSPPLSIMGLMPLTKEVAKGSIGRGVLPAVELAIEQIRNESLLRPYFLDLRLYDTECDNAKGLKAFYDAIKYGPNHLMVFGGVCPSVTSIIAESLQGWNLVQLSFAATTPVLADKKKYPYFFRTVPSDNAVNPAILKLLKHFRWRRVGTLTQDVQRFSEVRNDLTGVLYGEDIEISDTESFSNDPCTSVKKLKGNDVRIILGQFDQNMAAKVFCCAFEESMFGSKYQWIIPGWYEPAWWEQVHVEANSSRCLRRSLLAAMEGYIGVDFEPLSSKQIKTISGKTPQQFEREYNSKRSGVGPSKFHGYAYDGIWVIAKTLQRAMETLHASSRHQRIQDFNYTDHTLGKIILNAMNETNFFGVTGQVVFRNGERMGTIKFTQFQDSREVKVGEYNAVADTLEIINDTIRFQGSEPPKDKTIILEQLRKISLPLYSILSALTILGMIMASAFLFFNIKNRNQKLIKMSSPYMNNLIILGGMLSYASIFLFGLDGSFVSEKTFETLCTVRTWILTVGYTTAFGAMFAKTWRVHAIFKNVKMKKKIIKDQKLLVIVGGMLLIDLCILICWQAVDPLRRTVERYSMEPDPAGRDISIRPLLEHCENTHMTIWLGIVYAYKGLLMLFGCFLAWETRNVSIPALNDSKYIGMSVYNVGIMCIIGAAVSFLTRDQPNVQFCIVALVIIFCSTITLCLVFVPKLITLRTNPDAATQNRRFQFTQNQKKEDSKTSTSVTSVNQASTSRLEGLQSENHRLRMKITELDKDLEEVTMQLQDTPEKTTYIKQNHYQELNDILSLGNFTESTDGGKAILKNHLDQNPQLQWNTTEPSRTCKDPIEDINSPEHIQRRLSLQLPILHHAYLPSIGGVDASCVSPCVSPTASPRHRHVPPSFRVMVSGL
UniProt Q9Z0U4, 17-960 limits assumed: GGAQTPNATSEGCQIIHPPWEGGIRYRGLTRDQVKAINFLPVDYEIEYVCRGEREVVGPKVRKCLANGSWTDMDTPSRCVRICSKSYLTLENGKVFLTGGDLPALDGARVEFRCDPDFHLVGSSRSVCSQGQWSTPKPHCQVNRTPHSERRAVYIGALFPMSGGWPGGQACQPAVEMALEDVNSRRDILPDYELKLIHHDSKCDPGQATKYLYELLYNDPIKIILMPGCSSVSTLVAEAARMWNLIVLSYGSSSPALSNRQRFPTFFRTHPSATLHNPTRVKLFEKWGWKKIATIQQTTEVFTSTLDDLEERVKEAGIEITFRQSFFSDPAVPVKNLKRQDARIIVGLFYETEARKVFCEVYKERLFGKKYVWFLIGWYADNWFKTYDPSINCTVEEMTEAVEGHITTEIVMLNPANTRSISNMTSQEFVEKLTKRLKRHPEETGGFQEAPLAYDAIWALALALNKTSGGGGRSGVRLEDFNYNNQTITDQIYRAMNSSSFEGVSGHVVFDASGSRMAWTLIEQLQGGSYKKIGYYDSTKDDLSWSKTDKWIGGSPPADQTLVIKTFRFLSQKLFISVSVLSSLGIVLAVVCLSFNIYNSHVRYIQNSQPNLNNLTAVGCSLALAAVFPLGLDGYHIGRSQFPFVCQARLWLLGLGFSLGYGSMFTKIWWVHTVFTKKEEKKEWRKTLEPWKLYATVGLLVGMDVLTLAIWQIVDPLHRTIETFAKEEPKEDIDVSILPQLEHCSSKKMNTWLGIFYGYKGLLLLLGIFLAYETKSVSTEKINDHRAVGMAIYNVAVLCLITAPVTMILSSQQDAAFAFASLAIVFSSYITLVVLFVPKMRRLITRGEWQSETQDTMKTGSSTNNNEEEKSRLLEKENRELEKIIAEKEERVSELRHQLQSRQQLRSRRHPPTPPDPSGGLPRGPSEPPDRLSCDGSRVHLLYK

As a reminder, the EC50 is the concentration that produces a half-maximal response.

A value given as a limit tells only on which side of the number the result lay.

The experiment deals with native rat GABAB receptors (Rattus norvegicus, UniProt O88871+Q9Z0U4). The experiment in a line: [35S]GTPγS binding assay using cortical rat brain membranes. As to conditions: read-out: EC50 (ability to potentiate an EC50 of GABAB receptor agonist such as Baclofen), in the presence of EC50 of GABAB receptor agonist. The source says:
The [^35S]GTPγS binding is a functional membrane-based assay used to study G-protein coupled receptor (GPCR) function. This method consists of using a binding assay to assess the initial step in receptor-mediated G protein activation in membranes prepared from cells expressing recombinant GPCR or using membranes from discrete areas of the rat brain. In brief, the assay measures the activation of G proteins by catalyzing the exchange of guanosine 5′-diphosphate (GDP) by guanosine 5′-triphosphate (GTP) at the α subunit. The GTP-bound G proteins dissociate into two subunits, Gα-GTP and Gβγ, which in turn regulate intracellular enzymes and ion channels. GTP is rapidly hydrolysed by the Gα-subunit (GTPases) and the G protein is deactivated and ready for a new GTP exchange cycle (Harper, Curr. Protoc. Pharmacol. 1998, 2.6, 1-10, John Wiley & Sons, Inc.). [^35S]GTPγS, a non-hydrolyzed analogue of GTP, is used for this purpose.
This method is widely used to study receptor activation of G protein in membranes prepared from rat brain tissue, including GABAB receptors (Urwyler et al, The Journal of Pharmacol. and Exp Ther. 2003, 307, 322-330; Olianas et al, Neurochemistry Intern. 2005, 46, 149-158). GABAB receptors are expressed in the rat brain cortex (Odagaki and Yamauchi, Basic Clin. Pharmacol. Toxicol. 2004, 94, 89-98) and are coupled to Gαo/i-protein, a preferential coupling for this method.
[^35S]GTPγS binding assay using cortical rat brain membranes preparation was used and adapted from Olianas et al (Neurochemistry Intern. 2005, 46, 149-158) for the detection of the positive allosteric modulator properties of the compounds of this invention on native rat GABAB receptors.
Cortices were dissected out from brains of 200-300 g Sprague-Dawley rats (Charles River Laboratories, L'Arbresle, France). Tissues were homogenized in 6 volumes (vol/wt) of 10% sucrose at 4° C. using a glass-teflon homogenizer. The homogenate was centrifuged at 1,250 g for 10 min, and the supernatant was centrifuged at 40,000 g for 20 min (4° C.). The pellet was resuspended in 25 ml water using a Polytron disrupter (Kinematica AG, Luzern, Switzerland) and centrifuged for 10 min at 3000 g. (4° C.). The supernatant was centrifuged at 40,000 g for 20 min (4° C.). The supernatant was discarded and the pellet washed twice by resuspension in 10 volumes 5 mM HEPES-KOH, pH 7.4. The homogenate was frozen and thawed twice and centrifuged at 40,000 g for 20 min. The final pellet was resuspended in 5 mM HEPES-KOH, pH 7.4 and stored at −80° C. before its use. Protein concentration was determined by the Bradford method (Bio-Rad protein assay, Reinach, Switzerland) with bovine serum albumin as standard.
Measurement of GABAB receptor positive allosteric modulator properties in rat cortical membranes was performed as follows: rat cortical membrane (1.5 μg) were incubated in 96-well microplates for 15 min at 30° C. in assay buffer (50 mM HEPES pH 7.4, 100 mM NaCl, 5 mM MgCl2, 10 μM GDP, 10 μg/ml saponin, 1 mM CaCl2) with increasing concentrations of positive allosteric modulator (from 1 nM to 60 μM) and a minimal concentration of GABA or Baclofen, a selective GABAB receptor agonist, that has been determined in previous experiments to correspond to the EC50, a concentration that gives 50% of the maximal response of the agonist, and is in accordance with published data (Olianas et al, Neurochemistry Intern. 2005, 46, 149-158). After addition of 0.1 nM [^35S]GTPγS to achieve a total reaction volume of 200 μl, microplates were shaken for 1 min and further incubated at 30° C. for 30 min. The incubation was stopped by rapid vacuum filtration over glass-fiber filter plates (Unifilter 96-well GF/C filter plates, Perkin-Elmer, Schwerzenbach, Switzerland) using a 96-well plate cell harvester (Filtermate, Perkin-Elmer, Downers Grove, USA). The Unifilter plate was washed three times with 300 μl of ice-cold wash buffer (20 mM HEPES pH 7.4, 100 mM NaCl). […]
A general note: GTPγS is a poorly hydrolysed GTP analogue; its binding reports G protein activation.
Consider `COc1nn(-c2ccc(Cl)c(NC(C)=O)c2)c(=O)n(Cc2ccc3cnn(C)c3c2)c1=O`, for which the EC50 is less than 100 nM.

As to `COc1nn(-c2ccc(F)c(NC(C)=O)c2)c(=O)n(Cc2ccc(F)cc2)c1=O`, the EC50 fell in the range of 100 to 500 nM.

With `COc1nn(-c2ccc(F)c(NC(C)=O)c2)c(=O)n(Cc2ccc3c(c2)OCC3(C)C)c1=O`, the EC50 is less than 100 nM.

In the case of `COc1nn(-c2ccc(F)c(NC(C)=O)c2)c(=O)n(Cc2ccc(C(C)C)c(F)c2)c1=O`, the concentration giving a half-maximal response (EC50) was less than 100 nM.

`COc1nn(-c2ccc(F)cc2CC#N)c(=O)n(Cc2ccc(Cl)cc2)c1=O`: the EC50 was less than 100 nM.

On to `COc1cc(Cn2c(=O)c(OC)nn(-c3ccc(F)c(NC(C)=O)c3)c2=O)ccc1Br`, for which the EC50 was more than 1000 nM.

For the compound `COc1nn(-c2cccc(NC(C)=O)c2)c(=O)n(CCc2ccccc2)c1=O`, the 50% effective concentration (EC50) is 100 to 500 nM.

Consider `COc1nn(-c2ccc(F)cc2)c(=O)n(Cc2ccc(Cl)c(Cl)c2)c1=O`, for which the EC50 is less than 100 nM.

Regarding `COc1nn(-c2cccc(NC(C)=O)c2)c(=O)n(Cc2ccc(F)c(C(F)(F)F)c2)c1=O`, the half-maximal effective concentration (EC50) is less than 100 nM.

For `COc1nn(-c2ccc(Cl)c(NC(C)=O)c2)c(=O)n(Cc2ccc(N(C)C)nc2)c1=O`, the half-maximal effective concentration (EC50) is less than 100 nM.

Regarding `COc1nn(-c2ccc(F)c(N(C)C(C)=O)c2)c(=O)n(Cc2ccc(C(F)(F)F)c(F)c2)c1=O`, the concentration giving a half-maximal response (EC50) was less than 100 nM.

Turning to `COc1nn(-c2cccc(NC(C)=O)c2)c(=O)n(Cc2ccc(C(C)C)nc2)c1=O`, the EC50 is more than 1000 nM.

In the case of `COc1nn(-c2ccc(F)c(NC(C)=O)c2)c(=O)n(Cc2cnc(Cl)c(Cl)c2)c1=O`, the EC50 was less than 100 nM.

With `COc1nn(-c2ccc(F)c(NC(C)=O)c2)c(=O)n(Cc2ccc(Cl)c(OC(C)C)c2)c1=O`, the EC50 is less than 100 nM.

Take `COc1nn(-c2cccc(NC(C)=O)c2)c(=O)n(Cc2ccc3cnoc3c2)c1=O`: the EC50 was less than 100 nM.

On to `COc1nn(-c2ccc(F)cc2)c(=O)n(Cc2cnc(Cl)c(Cl)c2)c1=O`, for which the concentration giving a half-maximal response (EC50) was in the range of 100 to 500 nM.

For `COc1nn(-c2ccc(Cl)c(NC(C)=O)c2)c(=O)n(Cc2ccc(Cl)c(N(C)C)c2)c1=O`, the EC50 was less than 100 nM.

Consider `COc1nn(-c2cccc(NC(C)=O)c2)c(=O)n(Cc2ccc(Cl)nc2)c1=O`, for which the half-maximal effective concentration (EC50) was more than 1000 nM.

Consider `COc1nn(-c2ccc(Cl)c(NC(C)=O)c2)c(=O)n(Cc2ccc(Cl)c(F)c2)c1=O`, for which the EC50 was less than 100 nM.

`COc1nn(-c2ccc(Cl)c(NC(C)=O)c2)c(=O)n(Cc2ccc3c(c2)CCO3)c1=O`: the EC50 was more than 1000 nM.

For the compound `COc1nn(-c2ccc(F)c(NC(C)=O)c2)c(=O)n(Cc2ccc(N3CCOCC3)c(F)c2)c1=O`, the EC50 is less than 100 nM.

For the compound `COc1cc(Cn2c(=O)c(OC)nn(-c3ccc(Cl)c(NC(C)=O)c3)c2=O)ccc1Cl`, the EC50 is more than 1000 nM.

On to `COc1nn(-c2ccc(F)cc2)c(=O)n(Cc2ccc(Cl)cc2)c1=O`, for which the EC50 was 500 to 1000 nM.

Turning to `COc1nn(-c2ccc(Cl)c(NC(C)=O)c2)c(=O)n(Cc2ccc(F)cc2)c1=O`, the 50% effective concentration (EC50) was 100 to 500 nM.

For `COc1nn(-c2ccc(F)c(NC(C)=O)c2)c(=O)n(Cc2ccc(F)c(N(C)C)c2)c1=O`, the concentration giving a half-maximal response (EC50) is less than 100 nM.

As for `COc1cccc(Cn2c(=O)c(OC)nn(-c3ccc(F)c(NC(C)=O)c3)c2=O)c1`, the EC50 is more than 1000 nM.

Turning to `COc1nn(-c2ccc(F)c(NC(C)=O)c2)c(=O)n(Cc2ccc3c(c2)OCCO3)c1=O`, the EC50 lay in the range of 500 to 1000 nM.

Turning to `COc1cccc(Cn2c(=O)c(OC)nn(-c3ccc(Cl)c(NC(C)=O)c3)c2=O)c1`, the EC50 was less than 100 nM.

For `COc1cc(Cn2c(=O)c(OC)nn(-c3cccc(NC(C)=O)c3)c2=O)ccc1C#N`, the EC50 was less than 100 nM.

Take `COc1nn(-c2cccc(NC(C)=O)c2)c(=O)n(Cc2ccc(Cl)c(F)c2)c1=O`: the EC50 was less than 100 nM.

`COc1nn(-c2ccc(F)c(NC(C)=O)c2)c(=O)n(Cc2ccc(F)c(N3CCOCC3)c2)c1=O`: the concentration for a half-maximal effect (EC50) is less than 100 nM.

As to `COc1nn(-c2ccc(F)c(NC(C)=O)c2)c(=O)n(Cc2ccc3c(c2)CCO3)c1=O`, the concentration giving a half-maximal response (EC50) was 100 to 500 nM.

With `COc1c(Cl)ccc(Cn2c(=O)c(OC)nn(-c3ccc(F)cc3)c2=O)c1F`, the EC50 is less than 100 nM.

As to `COc1nn(-c2ccc(F)c(NC(C)=O)c2)c(=O)n(Cc2ccc(Cl)c(C(F)(F)F)c2)c1=O`, the 50% effective concentration (EC50) was less than 100 nM.

As to `COc1nn(-c2cccc(NC(C)=O)c2)c(=O)n(Cc2cnc(Cl)c(F)c2)c1=O`, the concentration for a half-maximal effect (EC50) is more than 1000 nM.

As for `COc1nn(-c2ccc(F)c(NC(C)=O)c2)c(=O)n(Cc2ccc(Cl)c(N(C)C)c2)c1=O`, the EC50 is less than 100 nM.

As for `COc1cc(Cn2c(=O)c(OC)nn(-c3ccc(F)c(NC(C)=O)c3)c2=O)ccc1C(C)C`, the concentration giving a half-maximal response (EC50) was less than 100 nM.

Take `COc1nn(-c2cccc(NC(C)=O)c2)c(=O)n(Cc2ccc3c(cnn3C)c2)c1=O`: the EC50 is 100 to 500 nM.
